Inhibition data for 5 molecules are collected here from ChEMBL document CHEMBL1123502, “Synthesis of [[(naphthalenylmethoxy)- and [[(quinolinylmethoxy)phenyl]amino]oxoalkanoic acid esters. A novel series of leukotriene D4 antagonists and 5-lipoxygenase inhibitors” (J Med Chem, 1986).

Usually inhibition stands for the drop in the measured response relative to a control, in per cent.

The nature of this experiment: In vivo inhibition of LTD4-induced bronchospasm in guinea pig at dose of 50 mg/kg. The conditions noted are these: Cavia porcellus.
`COC(=O)CCC(=O)Nc1cccc(OCc2ccc3ccccc3n2)c1C`: the inhibition turned out to be 3%.
Next, `COC(=O)CCC(=O)Nc1cccc(COc2ccc3ccccc3c2)c1`: 1%; `COC(=O)CCCC(=O)Nc1cccc(OCc2ccc3ccccc3n2)c1`: -6%; `COC(=O)CC(=O)Nc1cccc(OCc2ccc3ccccc3n2)c1`: 96%.
For the molecule `CCOC(=O)CC(=O)Nc1cccc(OCc2ccc3ccccc3n2)c1`, the inhibition was determined as 84%.
